The values below come from patent publication US20170248602A1 (ALLERGAN, published 2017).

B1: α-SNAP-25 mouse monoclonal antibody 1D3B8 (antibody, V domains shown)
VH: QVKLQESGAELVKPGASVKISCKASGYIFTDHALHWVRQKPEQGLEWIGYIFPGNGNIEYNEKFKGKATLTADKSSSTAYMQLNSLTSGDSAMYFCKKMDYWGQGTTVTVSS
VL: DVLMTQTPLSLPVSLGDQASISCRSSQSIVHSNGNTYLEWYLQKPGQSPKLLIYKVSNRFSGVPDRFSGSGSGTDFTLKISRVEAEDLGVYYCFQGSHVPPTFGAGTKLELKR
B2: α-SNAP-25 mouse monoclonal antibody 2E2A6 (antibody, V domains shown)
VH: QVQLQQSDAELVKPGASVKISCRASGYTFTDHSIHWVKQQPGQGLEWIGYIFPGNGNIEYNDKFKGKATLTADKSSGTAYMQLNSLTSEDSAVYFCKRMGYWGQGTSVTVSS
VL: DVLMTQTPLTLSVTIGQPASISCKSSQSLLYTNGKTYLTWLFQRPGQSPKRLIYLVSELDSGVPDRFSGSGSGTDFTLEITRVEAEDLGVYYCLQSAHFPFTFGSGTKLEIKR
B3: α-SNAP-25 mouse monoclonal antibody 3C1A5 (antibody, V domains shown)
VH: QVKLQESGAELVKPGASVKISCKASGYTFTDHSIHWVKQKPGQGLEWIGYLFPGNGNFEYNEKFKGKATLTADKSSSTVYMYLNSLTSEDSAVYFCKRMGYWGQGTTVTVSS
VL: DVVMTQTPLTLSVTIGQPASISCKSSQSLLNTNGKTYLTWLIQRPGQSPQRLIYLVSKLDSGVPDRFSGSGSGTDFTLKISRVEAEDLGVYYCLQSSHFPFTFGSGTKLEIKR

The target of the test is SNAP-25 peptide comprising amino acids 134-206 of SEQ ID NO:5 (human). The test can be described thus: SPR (BIAcore 3000), peptide on CM5 chip.
On to B1, for which the binding result was “no binding (tested: 125 nM)”.
B2: the binding result is “no binding (tested: 10 µM)”.
Under B3 stands “no binding (tested: 100 nM)”.
